Measurements: patent USRE37410E, “Controlled local delivery of chemotherapeutic agents for treating solid tumors” (priority 1999, dated 2001)

Test system: 9L
Test: Intracranial local drug delivery by polymer implant in rat glioma model, median survival (Table 1 summary)
Assay type: in vivo

SMILES: O=P1(N(CCCl)CCCl)NC(O)CCO1 (stereo not shown)
- Median survival in days, Rx group (p(CPP:SA) 20% load, Rx day 5, tumor 1 × 1 × 1 mm^3, controls 14, n = 8): 44.5 days
- % increase survival (p(CPP:SA) 20% load, Rx day 5, controls 14): 218%
- % increase survival (p(FAD:SA) 20% load, Rx day 3): 450%
- Median survival in days, Rx group (p(FAD:SA) 20% load, Rx day 3, tumor 1 × 1 × 1 mm^3, controls 14, n = 10): 77 days
